Values of other authors, collected in patent publication US20100136096A1, “Systems for modulating inflammation” (Searete LLC, a limited liability corporation of the State …, priority 2008, published 2010).

Sequences of proteins named here, by UniProt entry; tags and fusion partners are left off. Residues count along the entry.
UniProt P10721, 26-976: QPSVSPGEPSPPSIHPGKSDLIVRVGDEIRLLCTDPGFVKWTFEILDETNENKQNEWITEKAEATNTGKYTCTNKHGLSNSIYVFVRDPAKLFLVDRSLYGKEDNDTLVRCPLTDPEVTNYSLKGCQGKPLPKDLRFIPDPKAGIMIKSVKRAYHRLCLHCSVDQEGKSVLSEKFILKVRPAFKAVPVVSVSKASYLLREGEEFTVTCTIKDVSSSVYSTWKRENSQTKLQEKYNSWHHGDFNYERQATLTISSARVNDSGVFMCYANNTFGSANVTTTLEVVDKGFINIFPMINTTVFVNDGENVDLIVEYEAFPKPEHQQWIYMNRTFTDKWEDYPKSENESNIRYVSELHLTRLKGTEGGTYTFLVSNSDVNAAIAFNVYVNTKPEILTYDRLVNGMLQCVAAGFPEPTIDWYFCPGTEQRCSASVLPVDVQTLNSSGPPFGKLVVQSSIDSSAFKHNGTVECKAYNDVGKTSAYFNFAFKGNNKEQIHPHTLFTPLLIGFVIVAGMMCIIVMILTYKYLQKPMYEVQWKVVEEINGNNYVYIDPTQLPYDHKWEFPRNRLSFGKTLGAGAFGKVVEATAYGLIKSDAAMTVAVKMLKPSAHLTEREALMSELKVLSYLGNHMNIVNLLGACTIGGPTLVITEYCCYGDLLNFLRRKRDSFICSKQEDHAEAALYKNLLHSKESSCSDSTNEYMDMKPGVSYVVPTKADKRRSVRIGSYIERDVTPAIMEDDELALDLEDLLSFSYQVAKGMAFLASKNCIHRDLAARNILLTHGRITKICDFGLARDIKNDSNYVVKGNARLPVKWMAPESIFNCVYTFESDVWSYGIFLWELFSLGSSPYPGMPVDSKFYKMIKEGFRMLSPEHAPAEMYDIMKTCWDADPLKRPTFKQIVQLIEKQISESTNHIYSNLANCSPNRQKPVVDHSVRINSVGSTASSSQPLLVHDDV
UniProt P09619, 33-1106: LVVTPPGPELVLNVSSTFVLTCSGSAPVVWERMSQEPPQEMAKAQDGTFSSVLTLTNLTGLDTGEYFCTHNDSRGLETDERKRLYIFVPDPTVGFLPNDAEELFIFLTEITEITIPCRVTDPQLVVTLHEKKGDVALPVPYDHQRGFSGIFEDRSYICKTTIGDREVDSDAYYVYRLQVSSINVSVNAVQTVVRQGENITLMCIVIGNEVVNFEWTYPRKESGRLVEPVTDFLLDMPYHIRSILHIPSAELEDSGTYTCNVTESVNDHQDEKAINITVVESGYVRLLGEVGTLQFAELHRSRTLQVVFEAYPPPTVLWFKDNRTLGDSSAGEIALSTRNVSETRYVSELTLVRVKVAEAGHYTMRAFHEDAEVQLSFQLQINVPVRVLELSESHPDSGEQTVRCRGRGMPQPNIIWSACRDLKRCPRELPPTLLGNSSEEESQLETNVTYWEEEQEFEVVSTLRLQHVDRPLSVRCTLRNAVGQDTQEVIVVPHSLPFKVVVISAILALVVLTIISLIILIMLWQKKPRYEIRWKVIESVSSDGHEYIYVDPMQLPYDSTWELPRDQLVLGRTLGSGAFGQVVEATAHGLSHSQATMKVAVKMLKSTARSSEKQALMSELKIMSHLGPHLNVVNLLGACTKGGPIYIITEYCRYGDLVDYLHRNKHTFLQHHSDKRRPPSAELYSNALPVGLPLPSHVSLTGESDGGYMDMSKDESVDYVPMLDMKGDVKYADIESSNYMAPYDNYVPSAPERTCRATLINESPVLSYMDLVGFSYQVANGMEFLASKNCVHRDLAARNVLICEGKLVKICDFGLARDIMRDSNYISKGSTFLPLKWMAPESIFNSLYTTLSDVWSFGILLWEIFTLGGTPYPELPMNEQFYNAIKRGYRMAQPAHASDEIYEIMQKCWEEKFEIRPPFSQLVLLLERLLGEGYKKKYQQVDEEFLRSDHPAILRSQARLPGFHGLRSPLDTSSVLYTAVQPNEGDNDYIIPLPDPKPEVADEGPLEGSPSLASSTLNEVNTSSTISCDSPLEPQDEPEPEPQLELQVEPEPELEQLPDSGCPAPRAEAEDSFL

Columns and labels:
c-Kit = c-Kit (Homo sapiens, UniProt P10721); conditions: at nanomolar concentrations
PDGFβ = PDGFβ (Homo sapiens, UniProt P09619); conditions: at nanomolar concentrations

## Cc1nc(Nc2ncc(C(=O)Nc3c(C)cccc3Cl)s2)cc(N2CCN(CCO)CC2)n1.O [dasatinib, N-(2-chloro-6-methylphenyl)-2-[[6-[4-(2-hydroxyethyl)-1-piperazinyl]-2-methyl-4-pyrimidinyl]amino]-5-thiazolecarboxamide, monohydrate]
c-Kit
  inhibition of c-Kit: inhibits
PDGFβ
  inhibition of PDGFβ: inhibits
